The values below come from US11987542B2, “Co-crystal of sorafenib derivatives and process for preparation thereof” (EicOsis, LLC, priority 2018, dated 2024).

Sequences of proteins named here, by UniProt entry; tags and fusion partners are left off. Residues count along the entry.
UniProt A0A5F9CRP6, 1-555: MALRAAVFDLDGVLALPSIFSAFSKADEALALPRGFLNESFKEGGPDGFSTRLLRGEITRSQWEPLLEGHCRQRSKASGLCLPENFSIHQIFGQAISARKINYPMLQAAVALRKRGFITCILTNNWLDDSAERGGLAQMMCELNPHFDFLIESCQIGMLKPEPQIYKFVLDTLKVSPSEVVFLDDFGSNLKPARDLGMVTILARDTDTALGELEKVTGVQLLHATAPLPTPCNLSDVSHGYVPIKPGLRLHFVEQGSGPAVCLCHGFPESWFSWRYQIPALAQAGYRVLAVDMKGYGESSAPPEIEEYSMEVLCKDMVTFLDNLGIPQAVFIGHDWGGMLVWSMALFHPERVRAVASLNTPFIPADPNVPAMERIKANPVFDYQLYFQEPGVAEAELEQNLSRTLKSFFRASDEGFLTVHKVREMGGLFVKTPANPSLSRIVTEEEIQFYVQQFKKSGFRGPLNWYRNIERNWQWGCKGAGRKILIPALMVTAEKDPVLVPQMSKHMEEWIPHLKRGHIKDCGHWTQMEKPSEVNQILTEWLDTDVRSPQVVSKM

In general, IC50 refers to the concentration that inhibits the measured activity by half.

Structures are written as SMILES.

For the experiment, the target named is Rabbit sEH (Oryctolagus cuniculus, UniProt A0A5F9CRP6). The note with it: read-out: IC50 Rabbit sEH; radioactive assay and liver cytosolic preparation.

For `O=C(Nc1ccc(OC(F)(F)F)cc1)N[C@H]1CC[C@H](Oc2ccc(C(=O)O)cc2)CC1` [EC1728, trans-4-{4-[3-(4-trifluoromethoxy-phenyl)-ureido]-cyclohexyloxy}-benzoic acid], the IC50 stood at 2 nM.
